Assay results published in patent US9533973B2, “Allosteric modulators of 5-hydroxytryptamine 2C receptor (5-HT2CR)” (THE BOARD OF REGENTS OF THE UNIVERSITY OF TEXAS SYSTEM, priority 2011, dated 2017).

Amino acid sequences for entries named in this document (tags omitted). Residues count along the entry.
UniProt P28335, 33-458 limits assumed: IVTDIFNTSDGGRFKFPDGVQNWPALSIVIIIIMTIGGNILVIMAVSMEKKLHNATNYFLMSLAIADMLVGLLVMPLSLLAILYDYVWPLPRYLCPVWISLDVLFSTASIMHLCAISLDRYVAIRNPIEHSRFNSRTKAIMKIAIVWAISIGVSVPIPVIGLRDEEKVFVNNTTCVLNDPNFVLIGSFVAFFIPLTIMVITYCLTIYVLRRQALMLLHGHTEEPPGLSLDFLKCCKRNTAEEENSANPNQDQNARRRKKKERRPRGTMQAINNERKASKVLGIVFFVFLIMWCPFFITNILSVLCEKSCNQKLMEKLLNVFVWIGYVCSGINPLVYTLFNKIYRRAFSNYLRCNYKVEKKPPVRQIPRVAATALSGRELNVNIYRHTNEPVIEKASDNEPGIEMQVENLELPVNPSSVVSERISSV

Key:
[1] = biological target: human 5-HT2CR (Homo sapiens, UniProt P28335); assay: 5-HT induced intracellular calcium (Cai++) release assay in live 5-HT2CR-CHO cells; conditions: 5-HT-induced Cai++ release
Protocol: Selected results for the biological characterization of the synthesized compounds can be found in Ding et al., ACS Chem. Neurosci., 3, 538-545, 2012, and also described herein. The biological activity is assessed using an intracellular calcium (Cai^++) release assay. The best-characterized intracellular signaling pathway of the 5-HT2CR is the activation of phospholipase C (PLCβ) via Gαq/11 proteins and the production of diacylglycerol (DAG) and inositol-1,4,5-trisphosphate (IP3), leading to increased Cai^++ release from intracellular stores (Berg et al., Neuropharmacology 55, 969-76, 2008). Functional characterization of our synthetic PNU-69176E (CYD-1-78-2) and its diastereomer CYD-1-78-1 was determined by utilizing an Cai^++ release assay in live cells in which Cai^++ levels can be regarded as an outcome measure of activation of the 5-HT2CR signaling pathway (Berg et al., Neuropharmacology 55, 969-76, 2008). […]
Changes in Cai^++ levels were determined using the calcium sensitive dye Calcium 4 (FLIPR No-wash kit, Molecular Devices, Sunnyvale, Calif., part #R8142). […] Fluorescence (λex=485 nm, λem=525 nm) was measured with a FlexStation3 (Molecular Devices). […] Addition of 20 μL of 5× concentrated tested compound occurred at 17 sec and fluorescence was recorded every 1.7 sec for 90 sec to determine any innate agonist activity. […]

[2] = Solubility of representative compounds (Table 1); type: physicochemical; conditions: solvents listed

With `CS[C@H]1O[C@H]([C@H](NC(=O)c2ccccc2C2CCNCC2)[C@H](C)Cl)[C@H](O)[C@H](O)[C@H]1O` the EC50 [1] was 10.3 nM and the Solubility [2] was “H2O, EtOH, DMSO”.
